Assay results taken from PubChem BioAssay AID485349 (National Center for Advancing Translational Sciences (NCATS), 2010).
This is a selection; strong and weak results do not stand in their true shares. Activity calls are given as the source filed them. The call rests on the fitted dose curve; in most records, active means well fitted activation curve with a large enough effect; inconclusive means small, poorly fitted or top-dose-only effect; inactive means no such curve, though single readings can be large or run the other way.

Test: qHTS Assay for Identifying a Potential Treatment of Ataxia-Telangiectasia; further: % of control where 0% means no effect; nearly all actives have a fitted effect of over 45% in size
Conditions: […] A-T fibroblasts, KAP-1 phosphorylation AlphaLISA, neocarzinostatin DNA damage 30 min before lysis; at 57.5 µM (top of the series) unless noted
Source text: NIH Chemical Genomics Center [NCGC] NIH Molecular Libraries Probe Centers Network [MLPCN] MLPCN Grant: MH089030-01 Assay Submitter (PI): Wei Zheng and Yosef Shiloh Ataxia-telangiectasia (A-T) is a devastating and progressive disease for which, there is no cure. Although A-T is a multisystem disease, it is stereotyped characterized by its neurological symptoms such as truncal ataxia, due to cerebellar cortical degeneration of the Purkinje and granule cells. Other symptoms of A-T are telangiectasias (dilated blood vessels), primary immunodeficiency, marked sensitivity to ionizing radiation (IR), chromosomal instability and predisposition to cancer. The underlying genetic cause of A-T is null mutations in the ATM (A-T mutated) gene. ATM is a nuclear serine/threonine kinase that functions as a master regulator of the cellular responses to double strand breaks (DSBs) in the DNA. Upon activation by DSBs, ATM phosphorylates a plethora of down stream targets, including KAP-1 on […]. KAP-1 phosphorylation occurs shortly in response to DSBs and mediates global chromatin relaxation, which facilitates DSB repair. To screen for small molecules that will compensate for the loss of ATM in cells derived from A-T patients, we monitored KAP-1 phosphorylation as a readout for ATM-like activity using an AlphaLISA assay.
qHTS Assay Protocol: Step,Parameter,Value,Description 1. Cell Plating, 3 ul, 500 cells/well in OPTI-MEM, 1% FBS, 1% Pen/Strep 2. Incubation, 16-24 hr, 37C, 5% CO2, 95% humidity 3. Library compounds, 23 nl, 76.7 - 0.61uM dilution series final concentration 4. Incubation, 60 min, 37C, 5% CO2, 95% humidity 5. Reagent, 1 ul, 1600 ng/ml NCS in PBS + 0.05% BSA + 0.005% Tween 20 6. Incubation, 30 min, 37C, 5% CO2, 95% humidity 7. Reagent, 1 ul, Premixed detection reagents and lysis buffer 8. Reagent, 1 ul, 0.6% Antifoam A 9. Incubation, 6 hr, 25C, 95% humidity 10. Readout, EnVision, EnVision plate reader. AlphaScreen 1536-well protocol Cells were plated using medium-binding white solid-bottom tissue culture treated Kalypsys plates. Multidrop dispense of 3 uL of […] (hTERT immortalized A-T patient fibroblast cells). Detection reagent and lysis buffer was 3.75nM Rab-a-pKAP1 antibody bound to 75 ng/ul AlphaScreen SA donor bead, 3.75 nM Biot-M-a-KAP1 antibody bound to AlphaLISA protein A acceptor bead, 0.5x protease inhibitor cocktail and 0.25x PerkinElmer lysis buffer. EnVision protocol for 1536-well AlphaScreen read (30ms excitation, 100ms read), about 10 min/plate.

| SMILES | activation |
| --- | --- |
| O=C(OC1CN2CCC1CC2)c1cccc([N+](=O)[O-])c1 (configuration not stated) | inactive: -31.4% |
| CCOC(=O)c1ccc(NC(=O)C(C)(CCl)SC)cc1 (configuration not stated) | inactive: -12.2% |
| Clc1n[nH]nc1-c1nn[nH][15n]1 | inactive: -0.905% |
| CC(C)(C)C(=O)NC(Sc1ncccn1)C(Cl)(Cl)Cl (configuration not stated) | inactive: 10.7% |
| CCC1=CC2Cc3nc4ccc(Cl)cc4c(N)c3C(C1)C2 (configuration not stated) | inactive: 17.2% |
| O=P1(Nc2ccccn2)COc2ccccc2OC1 | inactive: 1.05% |
| CCOP(=O)(NC(=NC(C)c1ccccc1)NC(C)c1ccccc1)OCC (configuration not stated) | inactive: 3.66% |
| CCOP(=O)(Nc1ccc(C)cn1)OCC | inactive: 11.8% |
| CC(C)/C=N\N=C(\N)N[N+](=O)[O-] | inactive: -1.33% |
| O=[As](O)(c1ccccc1Br)c1ccccc1Br | inactive: -1.2% |
| COc1ccccc1CNC(=O)COC(=O)C(O)(c1ccccc1)c1ccccc1 | inactive: -0.373% |
| CN(C)C1(CNC(=O)c2ccc(S(C)(=O)=O)cc2)CCCCC1 | inactive: -3.91% |
| O=C(/C=C/c1ccccc1)OC1CN2CCC1CC2 (configuration not stated) | inactive: -7.34% |
| Cc1nn(-c2ccccc2)c2c1P(=O)(N1CCOCC1)N(C)C(c1ccccc1)=N2 (configuration not stated) | inactive: -1.71% |
| Cc1ccc(C(=O)OC2CN3CCC2CC3)cc1 (configuration not stated) | inactive: 2.94% |
| CC1CCC(C(C)C)C(OP(=O)(Nc2ccccn2)c2ccccc2)C1 (configuration not stated) | inactive: -0.673% |
| Nc1cccc([As](=O)(O)c2ccccc2)c1 | inactive: 1.22% |
| Cc1ccc(OCC(=O)OC2CN3CCC2CC3)cc1 (configuration not stated) | inactive: -0.0614% |
| NS(=O)(=O)c1cccc(NC(=O)COC(=O)C(O)(c2ccccc2)c2ccccc2)c1 | inactive: 5.69% |
| O=P1(Nc2ccc(Br)cn2)COc2ccccc2OC1 | inactive: 10.4% |
| O=P1(Nc2ncccn2)COc2ccccc2OC1 | inactive: 2.81% |

| SMILES | activation |
| --- | --- |
| O=C(O)COc1ccc([As](=O)(O)O)cc1[N+](=O)[O-] | inactive: -3.64% |
| Nc1ccccc1[As](=O)(O)c1ccccc1 | inactive: 6.13% |
| CCOP1(=S)c2c(C)nn(CCC#N)c2N=C(c2ccccc2F)N1C (configuration not stated) | inactive: -0.268% |
| O=P(Nc1nccs1)(Oc1ccccc1)Oc1ccccc1 | inactive: 4.21% |
| O=P(Nc1nccs1)(c1ccccc1)c1nc2ccccc2s1 (configuration not stated) | inactive: -1.18% |
| CS(=O)(=O)c1cc([N+](=O)[O-])c2no[n+]([O-])c2c1 | inactive: -0.727% |
| N#CCCN(C(=O)COC(=O)C(O)(c1ccccc1)c1ccccc1)c1ccc(F)cc1 | inactive: -0.806% |
| CCOP1(=S)c2c(C)nn(CCC#N)c2N=C(c2ccc(F)cc2)N1C (configuration not stated) | inactive: 4.63% |
| CN(C(=O)Cc1ccccc1)[C@@H]1CC[C@]2(CCCO2)C[C@H]1N1CCCC1 | inactive: -5.41% |
| O=[N+]([O-])c1ccc2c(c1)nnn2O | inactive: 1.59% |
| NC(=O)Nc1ccc([As](=O)(O)O)cc1 | inactive: -9.68% |
| O=[As](O)(c1cccc(O)c1)c1cccc(O)c1 | inactive: -2.82% |
| O=C(OC1CN2CCC1CC2)c1ccc(Cl)cc1 (configuration not stated) | inactive: 8.37% |
| O=[As](O)(O)c1cccnc1 | inactive: -11.5% |
| COc1cc(C(=O)NCC2(N3CCOCC3)CCCCC2)cc(Cl)c1OC(C)C | inactive: 0.0065% |
| CS(=O)(=O)c1ccc(Cl)c(NC(=O)COC(=O)C(O)(c2ccccc2)c2ccccc2)c1 | inactive: -2.25% |
| COc1cc(C2NCCC3(OCCO3)C2(C)C)cc(OC)c1OC (configuration not stated) | inactive: 3.09% |
| CCOP(=O)(Nc1cccc2ccccc12)OCC | inactive: 2.58% |
| Cc1ccc(NCCc2c([N+](=O)[O-])cc([N+](=O)[O-])cc2[N+](=O)[O-])cc1 | inactive: -0.566% |
| Nc1cccc2c([As](=O)(O)O)cccc12 | inactive: 0.725% |
| CCCOP(=S)(Nc1nc(N)cc(=O)[nH]1)OCCC | inactive: -72.7% |
